Columns and labels:
[1] = tested on: Campylobacter fetus subsp. fetus ATCC 27374; settings: approximately 10, 20, 30, 40, or 50 mM acid; P<0.05
[2] = tested on: Campylobacter jejuni subsp. doylei ATCC 49349; settings: approximately 10, 20, 30, 40, or 50 mM acid; P<0.05

SMILES | OD of cultures compared with cultures in non-supplemented media [1] | absorbance compared with cultures grown in non-supplemented media [2]
O=C(O)CC(O)C(=O)O (racemic) [Malic, DL-malic acid] | significantly higher | 
O=C(O)CC(O)(CC(=O)O)C(=O)O [Citric, citric acid] |  | inability of citric acid to stimulate Campylobacter growth at any level of supplementation
O=C(O)/C=C/C(=O)O [Fumaric, fumaric acid] | significantly higher | 
O=C(O)CCC(=O)O [Succinic, succinic acid] | significantly higher | 

Reference: patent publication US7655454B1, “Bacteriological culture medium for Campylobacteriaceae species” (priority 2005, dated 2010)
